# Source: PubChem (National Center for Advancing Translational Sciences (NCATS))
# The list is not random: actives were taken first. Their share in the collection is about 16%.
# TDP1 cell noCPT: qHTS for Inhibitors of human tyrosyl-DNA phosphodiesterase 1 (TDP1): qHTS in cells in absence of CPT; DT40 Tdp1-/- hTDP1 cells, no CPT, ATP luminescence, 48 h; Potency, µM (top dose mostly 46.2 µM), for inactives: at the highest dose activity change, negative = growth inhibition, most hits filed as inhibitors; 420,000 compounds, 15% hits; also: potency is read from the fitted curve at half-maximal effect; % is scaled to controls: 0 for no effect and ±100 for the full control effect; nearly all actives have a fitted effect of over 55% in size
#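 Luminescent ATP content (CellTiter-Glo) served as the growth readout. Knockout chicken DT40 cells expressing human TDP1 were exposed to compounds without camptothecin for a minimum 48 hr at 37 °C.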
# uPA generation: cell surface uPA generation inhibition; cell surface uPA generation assay, qHTS; Potency, µM (highest dose often 38.3 µM), without a hit: top-dose activity change, negative = inhibition, most hits filed as inhibitors; 330,000 compounds, 0.31% hits; AID 540303; active = well fitted inhibition curve with a large enough effect; inconclusive = small, poorly fitted or top-dose-only effect; inactive = no such curve, though single readings can be large or run the other way; tested in mouse RAW 264.7 cells; also: potency is read from the fitted curve at half-maximal effect; % is scaled to controls: 0 for no effect and ±100 for the full control effect; nearly all actives have a fitted effect of over 55% in size
# TDP1 inh: TDP1 (human) enzyme inhibition | Q9NUW8 | recombinant TDP1, AlphaScreen DNA substrate cleavage | 350,000 compounds, 0.28% hits | Potency, µM (series often up to 130 µM), inactives show top-dose activity change, negative = inhibition, usual class: inhibitors; also: potency is read from the fitted curve at half-maximal effect; % is scaled to controls: 0 for no effect and ±100 for the full control effect; nearly all actives have a fitted effect of over 40% in size
#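 Steps: enzyme plus compound, 15 min RT; add biotin/phosphotyrosine-FITC oligonucleotide (15 nM final), react 5 min; add donor/acceptor beads (10 ug/ml final), 10 min; read AlphaScreen. Tdp1 at 1 nM final.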
# miR-21 FLuc: miR-21 reporter, rising signal; Potency, µM (doses to about 38.3 µM), without a hit: at the top dose reporter change, positive = more light; HeLa miR-21 FLuc reporter, luciferase, 48 h; 340,000 tested, under 10 active; active = well fitted rising curve with a large enough effect; inconclusive = small, poorly fitted or top-dose-only effect; inactive = no such curve, though single readings can be large or run the other way;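 further: % of control where 0% means no effect; miR-21 action dims this reporter so a rising signal means less miR-21 action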
#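 Compounds were titrated across several concentrations (up to approximately 40 uM) and incubated 48 hours with HeLa miR-21-FLuc reporter cells (miR-21 target sequence downstream of FLuc, endogenous miR-21). Readout was firefly luciferase luminescence after lytic detection reagent.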
# TDP1 cell CPT: growth inhibition of DT40 Tdp1-/-;hTDP1 cells with camptothecin (screen for TDP1 inhibitors) | chicken DT40 Tdp1-/-;hTDP1 cells + 20 nM CPT, ATP luminescence, 48 h | Potency, µM (top dose mostly 46.2 µM), inactives show at the top dose activity change, negative = growth inhibition, usual class: inhibitors | 420,000 compounds, 12% hits; also: potency is read from the fitted curve at half-maximal effect; % is scaled to controls: 0 for no effect and ±100 for the full control effect; nearly all actives have a fitted effect of over 55% in size
#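 Chicken DT40 Tdp1-/- cells stably complemented with human TDP1 were seeded at 400 cells/well in medium containing 20 nM camptothecin, exposed to pin-transferred compounds, and grown at 37 °C for at least 48 hr. Viability was read as ATP luminescence.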
# * marks the source's active call; other numbers are inactive results; ? = inconclusive; nt = not tested or not shown. Unless noted, calls follow the shape of the dose curve; as a rule, active = well fitted curve in the direction sought with a large enough effect; inconclusive = small, poorly fitted or top-dose-only effect, or another doubt; inactive = no such curve, though single readings can be large; an effect the other way counts as inactive or inconclusive.
SMILES,TDP1 cell noCPT,uPA generation,TDP1 inh,miR-21 FLuc,TDP1 cell CPT
Cc1ccc(-n2c(N)c(C(=O)Nc3c(C)n(C)n(-c4ccccc4)c3=O)c3nc4ccccc4nc32)cc1,?,-1%,5%,-6%,?
Cc1c(NC(=O)COC(=O)c2cc(-c3cccc4ccccc34)nc3ccccc23)c(=O)n(-c2ccccc2)n1C,-19%,2%,3%,-1%,?
Cc1cc(C)cc(-n2c(N)c(C(=O)Nc3c(C)n(C)n(-c4ccccc4)c3=O)c3nc4ccccc4nc32)c1,8.2µM*,3%,3%,-4%,7.3µM*
Cc1c(NC(=O)c2cc(-c3ccc(F)cc3)nc3ccccc23)c(=O)n(-c2ccccc2)n1C,12µM*,1%,1%,nt,?
CCCOc1ccc(C(=O)CCNc2cccc(Cl)c2)cc1,?,-4%,4%,-23%,?
COc1cccc2c1cc1c(=O)n(CC(=O)N3CCN(c4cccc(C)c4C)CC3)nc(C)n12,?,2%,2%,0%,4%
Nc1ccnn1-c1ccccc1,-13%,-2%,nt,-5%,-22%
Cc1ccc(-c2noc(-c3nnn(CC(=O)Nc4cccc(C(F)(F)F)c4)c3N)n2)cc1,2.1µM*,nt,3%,-22%,2.1µM*
Cc1ccc(-c2noc(-c3nnn(CC(=O)Nc4ccc(C)c(Cl)c4)c3N)n2)cc1,-14%,nt,8%,8%,-28%
Nc1c(-c2nc(-c3ccccc3)no2)nnn1CC(=O)Nc1ccccc1,-26%,nt,-3%,4%,-36%
COc1cccc(NC(=O)Cn2nnc(-c3nc(-c4ccccc4)no3)c2N)c1,18µM*,nt,-6%,-33%,?
CCOC(=O)[C@]12CCCC=C1N(CCc1ccc(OC)c(OC)c1)C(=O)[C@H](CC(=O)NCCCN1CCCC1=O)C2,1%,nt,nt,nt,8%
CCOC(=O)[C@]12CCCC=C1N(CCC1=CCCCC1)C(=O)[C@H](CC(=O)NCc1ccc(C)o1)C2,13µM*,nt,nt,nt,?
CCOC(=O)[C@]12CCCC=C1N(CCC1=CCCCC1)C(=O)[C@H](CC(=O)NCc1ccccc1)C2,16µM*,nt,nt,nt,?
CCOC(=O)[C@]12CCC=C1N(CCC1=CCCCC1)C(=O)[C@H](CC(=O)NCC1CCCCC1)C2,?,nt,nt,nt,23µM*
CCOC(=O)[C@]12CCC=C1N(Cc1ccco1)C(=O)[C@H](CC(=O)NCc1ccccc1)C2,-13%,nt,nt,nt,-5%
CCOC(=O)[C@]12CCCC=C1N(CCc1ccc(OC)c(OC)c1)C(=O)[C@H](CC(=O)NCc1ccc(C)o1)C2,16µM*,nt,nt,nt,13µM*
COc1ccc(-c2nc(SCC(=O)NCCc3ccc(OC)c(OC)c3)n[nH]2)cc1,-15%,nt,-3%,-10%,-8%
CC/C=C\C/C=C\C/C=C\C/C=C\C/C=C\C/C=C\CCC(=O)NCCCC(=O)O,nt,nt,7%,nt,nt
CCCCNC(=O)C[C@@H]1C[C@@]2(C(=O)OCC)CCC=C2N(CCC2=CCCCC2)C1=O,?,nt,nt,nt,18µM*
CCOC(=O)[C@]12CCC=C1N(CCC1=CCCCC1)C(=O)[C@H](CC(=O)NCCC(C)C)C2,16µM*,nt,nt,nt,?
CCOC(=O)[C@]12CCC=C1N(CCC1=CCCCC1)C(=O)[C@H](CC(=O)NCCCCc1ccccc1)C2,21µM*,nt,nt,nt,?
CC1=C(C(=O)N(C(C)C)C(C)C)CC(CC(=O)NCCCN(C)C)C(=O)N1CCC1=CCCCC1 (stereo unspecified),-24%,nt,nt,nt,1%
CCN(CC)c1ccc(/C=N/n2c(C)nc3ccccc3c2=O)cc1,?,0%,nt,13%,?
Cn1cnnc1SCC(=O)NC1CCCc2ccccc21 (stereo unspecified),4%,-2%,2%,-2%,-7%
COc1ccc(Nc2nc(N3CCCC3)nc(N3CCCC3)n2)c(OC)c1,?,nt,2%,-1%,?
COc1ccc(Nc2nc(NC(C)(C)C)nc(N3CCOCC3)n2)c(OC)c1,?,2%,6%,-18%,21µM*
COc1ccc(Nc2nc(NC(C)(C)C)nc(N3CCCC3)n2)c(OC)c1,16µM*,nt,11%,3%,23µM*
COc1ccc(Nc2nc(Nc3ccc(OC)cc3OC)nc(N3CCN(C)CC3)n2)c(OC)c1,16µM*,-16%,8%,-10%,?
COc1ccc(Nc2nc(N3CCCCC3)nc(N3CCCCC3)n2)c(OC)c1,-25%,nt,2%,0%,-12%

# One compound at a time (already shown). Screens in order: TDP1 cell noCPT, uPA generation, TDP1 inh, miR-21 FLuc, TDP1 cell CPT
# Profile of CC/C=C\C/C=C\C/C=C\C/C=C\C/C=C\C/C=C\CCC(=O)NCCCC(=O)O : nt, nt, 7%, nt, nt
# Profile of CCN(CC)c1ccc(/C=N/n2c(C)nc3ccccc3c2=O)cc1 : ?, 0%, nt, 13%, ?

# (continued)
SMILES,TDP1 cell noCPT,uPA generation,TDP1 inh,miR-21 FLuc,TDP1 cell CPT
COc1cc(C2c3sc(=O)[nH]c3SC3C4CCC(C4)C23)ccc1O (stereo unspecified),-19%,nt,6%,-3%,-1%
Cc1ccc(S(=O)(=O)c2ccc([N+](=O)[O-])cn2)cc1,0.52µM*,-6%,nt,?,0.46µM*
Nc1ccc(S(=O)(=O)c2ccccc2)nc1,-3%,3%,nt,-1%,6%
Cc1cc(S(=O)(=O)c2ccc([N+](=O)[O-])cn2)ccc1Br,0.33µM*,-8%,nt,nt,0.33µM*
Cc1cc(Sc2ccc([N+](=O)[O-])cn2)ccc1Br,?,15%,nt,nt,-40%
O=[N+]([O-])c1ccc(S(=O)(=O)c2ccccc2)nc1,0.92µM*,?,nt,?,0.52µM*
Cc1nc2ccccc2c2oc(C(=O)N3CCC(C)CC3)cc12,?,5%,4%,-14%,?
Cc1cc(C(=O)N2CCN(S(=O)(=O)c3ccccc3)CC2)c(C)o1,?,-5%,2%,1%,23µM*
Cc1cc(C(=O)N2CCc3ccccc3C2)c(C)o1,?,?,nt,nt,16µM*
Cc1nc2ccccc2c2oc(C(=O)N3CCc4ccccc4C3)cc12,16µM*,1%,4%,28%,23µM*

# Single entries from above:
# In TDP1 inh, Cc1nc2ccccc2c2oc(C(=O)N3CCC(C)CC3)cc12 is entered as 4%
# In TDP1 cell CPT, Cc1cc(C(=O)N2CCc3ccccc3C2)c(C)o1 is entered as 16µM*
# In TDP1 cell noCPT, Cc1cc(S(=O)(=O)c2ccc([N+](=O)[O-])cn2)ccc1Br is entered as 0.33µM*
# In miR-21 FLuc, COc1cc(C2c3sc(=O)[nH]c3SC3C4CCC(C4)C23)ccc1O (stereo unspecified) is entered as -3%
# In TDP1 cell noCPT, Cc1nc2ccccc2c2oc(C(=O)N3CCc4ccccc4C3)cc12 is entered as 16µM*
# In TDP1 cell noCPT, Nc1ccc(S(=O)(=O)c2ccccc2)nc1 is entered as -3%
